Key:
[1] = system: Human gastric cancer line NCI-N87 cells; experiment: Antitumor test (2), NCI-N87 subcutaneous transplant in nude mice; format: in vivo, nude mouse; conditions: 10 mg/kg intravenously on Day 7
Excerpt: The calculation expression is as shown below. […] An untreated group was established as a control group.

[2] = system: Human breast cancer line JIMT-1 cells; experiment: Antitumor test (3), JIMT-1 subcutaneous transplant in nude mice; conditions: 10 mg/kg intravenously on Days 12 and 19

trastuzumab emtansine was tested, and the “weight loss of the mice, NCI-N87 test (2)” value [1] was “free from weight loss of the mice” and the “weight loss of the mice, JIMT-1 test” value [2] was “free from weight loss of the mice”.

From patent US11584800B2, “Method of treating cancer comprising administration of anti-HER2 antibody-drug conjugate” (DAIICHI SANKYO COMPANY, LIMITED, priority 2014, dated 2023)
